ChEMBL document CHEMBL3877269, “Structure-activity relationships and optimization of acyclic acylphloroglucinol analogues as novel antimicrobial agents” (Eur J Med Chem, 2017)

Tested on: Staphylococcus aureus
Test: Antibacterial activity against methicillin-resistant Staphylococcus aureus JCSC 2172 after 8 to 12 hrs by resazurin dye based microdilution method
Type: functional

Q: How did the MIC turn out when `CC[C@H](C)[C@H](NC(=O)CN)C(=O)NCC(=O)N[C@@H](C)C(=O)N[C@H](C(=O)N[C@@H](CC(C)C)C(=O)N[C@@H](CCCCN)C(=O)N[C@H](C(=O)N[C@@H](CC(C)C)C(=O)N[C@H](C(=O)N[C@H](C(=O)NCC(=O)N[C@@H](CC(C)C)C(=O)N1CCC[C@H]1C(=O)N[C@@H](C)C(=O)N[C@@H](CC(C)C)C(=O)N[C@H](C(=O)N[C@@H](CO)C(=O)N[C@@H](Cc1c[nH]c2ccccc12)C(=O)N[C@H](C(=O)N[C@@H](CCCCN)C(=O)N[C@@H](CCCNC(=N)N)C(=O)N[C@@H](CCCCN)C(=O)N[C@@H](CCCNC(=N)N)C(=O)N[C@@H](CCC(N)=O)C(=O)N[C@@H](CCC(N)=O)C(N)=O)[C@@H](C)CC)[C@@H](C)CC)[C@@H](C)O)[C@@H](C)O)C(C)C)C(C)C` [MELITTIN] was run?
A: The MIC was 1.25 µg/mL (≈ 0.439 µM).

In brackets after ≈: the same amount, converted by molar mass.
